Chains of the proteins cited; added tags and fusions are not shown.
UniProt P14902, whole entry: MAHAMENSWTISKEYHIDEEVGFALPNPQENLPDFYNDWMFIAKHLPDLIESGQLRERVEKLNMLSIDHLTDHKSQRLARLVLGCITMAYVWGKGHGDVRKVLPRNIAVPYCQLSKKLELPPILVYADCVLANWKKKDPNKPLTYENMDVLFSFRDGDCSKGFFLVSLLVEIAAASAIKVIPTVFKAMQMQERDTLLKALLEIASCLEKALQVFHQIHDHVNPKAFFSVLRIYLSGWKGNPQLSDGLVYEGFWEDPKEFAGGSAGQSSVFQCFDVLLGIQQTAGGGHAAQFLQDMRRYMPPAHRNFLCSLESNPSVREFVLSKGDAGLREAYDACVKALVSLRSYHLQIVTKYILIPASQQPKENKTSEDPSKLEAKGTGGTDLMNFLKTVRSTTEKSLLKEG

The target of this assay is IDO1 (Homo sapiens, UniProt P14902). Nature of the assay: IDO1 Cellular Assay in HeLa Cells Stimulated with IFNγ. It counts as cell-based. As to conditions: HeLa cells stimulated with IFNγ 100 ng/mL, 300 uM L-tryptophan, about 48 hours; read-out: IDO1 HeLa Cell Assay, IC50.
A word on the IC50: it is the point on the concentration scale where inhibition reaches its midpoint. Regarding `FC(F)(F)c1cnc2[nH]c(C3(c4ccc5c(n4)CCCN5c4ccnc(C(F)(F)F)n4)CCC3)nc2c1` [Example 32, 6-{1-[6-(trifluoromethyl)-3H-imidazo[4,5-b]pyridin-2-yl]cyclobutyl}-1[2-(trifluoromethyl)pyrimidin-4-yl]-1,2,3,4-tetrahydro-1,5-naphthyridine], the IC50 came out at 13 nM.
Take `CC(c1ccc2c(n1)CCCN2C(=O)OC1CC1)c1nc2ccc(C#N)cc2[nH]1` (centres unmarked) [Example 29, cyclopropyl 6-(1-(6-cyano-1H-benzo[d]imidazol-2-yl)ethyl)-3,4-dihydro-1,5-naphthyridine-1(2H)-carboxylate]: the IC50 was 2.48 nM.
Consider `FC(F)(F)c1cnc2nc(C3(c4ccc5c(c4)CCCN5c4ccccn4)CCC3)[nH]c2c1` [Example 11, 1-(pyridin-2-yl)-6-(1-(6-(trifluoromethyl)-1H-imidazo[4,5-b]pyridin-2-yl)cyclobutyl)-1,2,3,4-tetrahydroquinoline], for which the IC50 is 4.88 nM.
With `COC(=O)N1CCCc2nc(C3(c4nc5cc(C(F)(F)F)cnc5[nH]4)CCC3)ccc21` [Example 18, methyl 6-(1-(6-(trifluoromethyl)-3H-imidazo[4,5-b]pyridin-2-yl)cyclobutyl)-3,4-dihydro-1,5-naphthyridine-1(2H),-carboxylate], the concentration for half-maximal inhibition (IC50) worked out at 1.98 nM.
As for `Cc1nccc(N2CCCc3nc(C4(c5nc6ccc(Cl)cc6[nH]5)CC4)ccc32)n1` [Example 39, 6-[1-(6-chloro-1H-benzimidazol-2-yl)cyclopropyl]-1-(2-methylpyrimidin-4-yl)-1,2,3,4-tetrahydro-1,5-naphthyridine], the IC50 was 9.15 nM.
`FC(F)(F)c1cnc2nc(C3(c4ccc5c(n4)CCCN5c4ccnc(C(F)(F)F)n4)CC3)[nH]c2c1` [Example 38, 6-{1-[6-(trifluoromethyl)-3H-imidazo[4,5-b]pyridin-2-yl]cyclopropyl}-1-[2-(trifluoromethyl)pyrimidin-4-yl]-1,2,3,4-tetrahydro-1,5-naphthyridine]: the IC50 is 12.5 nM.
As to `C[C@H](c1ccc2c(n1)CCCN2C(=O)OC1CC1)c1nc2ccc(Cl)cc2[nH]1` [Example 27, cyclopropyl (R)-6-(1-(6-chloro-1H-benzo[d]imidazol-2-yl)ethyl)-3,4-dihydro-1,5-naphthyridine-1(2H)-carboxylate], the IC50 was found to be 2.29 nM.
`N#Cc1ccc2nc(C3(c4ccc5c(c4)CCCN5C(=O)C4CC4)CCC3)[nH]c2c1` [Example 4, 2-{1-[1-(cyclopropane-carbonyl)-1,2,3,4-tetrahydroquinolin-6-yl]cyclobutyl}-1H-benzimidazole-6-carbonitrile]: the IC50 turned out to be 5.26 nM.
As to `FC(F)(F)c1cnc2nc(C3(c4ccc5c(c4)CCCN5c4ccncn4)CCC3)[nH]c2c1` [Example 12, 1-(pyrimidin-4-yl)-6-(1-(6-(trifluoromethyl)-1H-imidazo[4,5-b]pyridin-2-yl)cyclobutyl)-1,2,3,4-tetrahydroquinoline], the IC50 came out at 10.5 nM.
As for `O=C([C@@H]1CCCCO1)N1CCCc2nc(C3(c4nc5ncc(C(F)(F)F)cc5[nH]4)CCC3)ccc21` [Example 15, (S)-(tetrahydro-2H-pyran-2-yl)(6-(1-(6-(trifluoromethyl)-1H-imidazo[4,5-b]pyridin-2-yl)cyclobutyl)-3,4-dihydro-1,5-naphthyridin-1(2H)-yl)methanone], the IC50 was found to be 2.14 nM.
Regarding `N#Cc1cnc2nc(C3(c4ccc5c(n4)CCCN5C(=O)OC4CC4)CCC3)[nH]c2c1` [Example 24, cyclopropyl 6-[1-(6-cyano-1H-imidazo[4,5-b]pyridin-2-yl)cyclobutyl]-3,4-dihydro-1,5-naphthyridine-1(2H)-carboxylate], the half-inhibitory concentration (IC50) stood at 3.29 nM.
For `COC(=O)N1CCCc2cc(C3(c4nc5ncc(C(F)(F)F)cc5[nH]4)CCC3)ccc21` [Example 5, Methyl 6-(1-(6-(trifluoromethyl)-1H-imidazo[4,5-b]pyridin-2-yl)cyclobutyl)-3,4-dihydroquinoline-1(2H)-carboxylate], the IC50 came out at 2.74 nM.
For `FC(F)(F)c1nccc(N2CCCc3nc(C4(c5nc6cc(Cl)ccc6[nH]5)CCC4)ccc32)n1` [Example 33, 6-[1-(5-chloro-1H-benzimidazol-2-yl)cyclobutyl]-1-[2-(trifluoromethyl)pyrimidin-4-yl]-1,2,3,4-tetrahydro-1,5-naphthyridine], the IC50 was determined as 3.41 nM.
Next, `CC(c1ccc2c(c1)CCCN2C(=O)OC1CC1)c1nc2ncc(Cl)cc2[nH]1` (centres unmarked) [Example 6, Cyclopropyl 6-(1-(6-chloro-1H-imidazo[4,5-b]pyridin-2-yl)ethyl)-3,4-dihydroquinoline-1(2H)-carboxylate]: 4.26 nM.
In the case of `Cc1nccc(N2CCCc3nc(C4(c5nc6cc(Cl)ccc6[nH]5)CCC4)ccc32)n1` [Example 34, 6-[1-(6-chloro-1H-benzimidazol-2-yl)cyclobutyl]-1-(2-methylpyrimidin-4-yl)-1,2,3,4-tetrahydro-1,5-naphthyridine], the IC50 was 2.92 nM.
As for `O=C(C1CCCCO1)N1CCCc2nc(C3(c4nc5ncc(C(F)(F)F)cc5[nH]4)CCC3)ccc21` (centres unmarked) [Example 14, (tetrahydro-2H-pyran-2-yl)(6-(1-(6-(trifluoromethyl)-1H-imidazo[4,5-b]pyridin-2-yl)cyclobutyl)-3,4-dihydro-1,5-naphthyridin-1(2H),-yl)methanone], the IC50 stood at 1.58 nM.
As for `O=C(OC1CC1)N1CCCc2nc(C3(c4nc5ccc(Cl)cc5[nH]4)CCC3)ccc21` [Example 21, cyclopropyl 6-[1-(6-chloro-1H-benzimidazol-2-yl)cyclobutyl]-3,4-dihydro-1,5-naphthyridine-1(2H)-carboxylate], the IC50 was found to be 0.693 nM.
For the compound `O=C(C1CC1)N1CCCc2nc(C3(c4nc5cc(C(F)(F)F)cnc5[nH]4)CCC3)ccc21` [Example 13, Cyclopropyl(6-(1-(6-(trifluoromethyl)-3H-imidazo[4,5-b]pyridin-2-yl)cyclobutyl)-3,4-dihydro-1,5-naphthyridin-1(2H),-yl)methanone], the IC50 turned out to be 1.68 nM.
As for `O=C(C1CC1)N1CCCc2cc(C3(c4nc5ccc(Cl)cc5[nH]4)CCC3)ccc21` [Example 2, {6-[1-(6-chloro-1H-benzimidazol-2-yl)cyclobutyl]-3,4-dihydroquinolin-1(2H)-yl}(cyclopropyl) methanone], the IC50 amounted to 2.92 nM.
`C[C@@H](c1ccc2c(c1)CCCN2C(=O)OC1CC1)c1nc2ncc(C#N)cc2[nH]1` [Example 7, cyclopropyl (S)-6-(1-(6-cyano-1H-imidazo[4,5-b]pyridin-2-yl)ethyl)-3,4-dihydroquinoline-1(2H)-carboxylate]: the IC50 worked out at 15.3 nM.
In the case of `O=C(C1CC1)N1CCCc2cc(C3(c4nc5ncc(C(F)(F)F)cc5[nH]4)CCC3)ccc21` [Example 1, Cyclopropyl(6-(1-(6-(trifluoromethyl)-1H-imidazo[4,5-b]pyridin-2-yl)cyclobutyl)-3A-dihydroquinolin-1(2H)-yl)methanone], the IC50 is 3.87 nM.
In the case of `Cc1nccc(N2CCCc3nc(C4(c5nc6cc(C(F)(F)F)cnc6[nH]5)CCC4)ccc32)n1` [Example 30, 1-(2-methylpyrimidin-4-yl)-6-(1-(6-(trifluoromethyl)-3H-imidazo[4,5-b]pyridin-2-vyl)cyclobutyl)-1,2,3,4-tetrahydro-1,5-naphthyridine], the IC50 turned out to be 4.37 nM.
Next, `Cc1nccc(N2CCCc3nc(C4(c5nc6cc(C#N)ccc6[nH]5)CCC4)ccc32)n1` [Example 36, 2-{1-[5-(2-methylpyrimidin-4-yl)-5,6,7,8-tetrahydro-1,5-naphthyridin-2-yl]cyclobutyl}-1H-benzimidazole-6-carbonitrile]: 1.94 nM.
For `O=C([C@H]1CCCCO1)N1CCCc2nc(C3(c4nc5ncc(C(F)(F)F)cc5[nH]4)CCC3)ccc21` [Example 16, (R)-(tetrahydro-2H-pyran-2-yl)(6-(1-(6-(trifluoromethyl)-1H-imidazo[4,5-b]pyridin-2-yl)cyclobutyl)-3,4-dihydro-1,5-naphthyridin-1(2H)-yl)methanone], the IC50 is 1.74 nM.
The same measure for `FC(F)(F)c1nccc(N2CCCc3nc(C4(c5nc6cc(Cl)cnc6[nH]5)CCC4)ccc32)n1` [Example 35, 6-[1-(6-chloro-3H-imidazo[4,5-b]pyridin-2-yl)cyclobutyl]-1-[2-(trifluoromethyl)pyrimidin-4-yl]-1,2,3,4-tetrahydro-1,5-naphthyridine]: 2.69 nM; for `C[C@@H](c1ccc2c(n1)CCCN2C(=O)OC1CC1)c1nc2ccc(Cl)cc2[nH]1` [Example 26, cyclopropyl (S)-6-(1-(6-chloro-1H-benzo[d]imidazol-2-yl)ethyl)-3,4-dihydro-1,5-naphthyridine-1(2H)-carboxylate]: 0.982 nM; for `CCOC(=O)N1CCCc2nc(C3(c4nc5cc(C(F)(F)F)cnc5[nH]4)CCC3)ccc21` [Example 19, ethyl 6-{1-[6-(trifluoromethyl)-3H-imidazo[4,5-b]pyridin-2-yl]cyclobutyl}-3,4-dihydro-1,5-naphthyridine-1(2H)-carboxylate]: 1.8 nM.
As to `CC(c1ccc2c(c1)CCCN2C(=O)C1CC1)c1nc2ccccc2[nH]1` (centres unmarked) [Example 9], the IC50 is 63.4 nM.
As to `Cc1nccc(N2CCCc3nc(C4(c5nc6ccc(C#N)cc6[nH]5)CC4)ccc32)n1` [Example 37, 2-(1-(5-(2-methylpyrimidin-4-yl)-5,6,7,8-tetrahydro-1,5-naphthyridin-2-yl)cyclopropyl)-1H-benzo[d]imidazole-6-carbonitrile], the IC50 turned out to be 4.81 nM.
